Experimental data reported in PubChem BioAssay AID463195 (Sanford-Burnham Center for Chemical Genomics, 2010).
This is a selection; strong and weak results do not stand in their true shares. The source made the active and inactive calls.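 The calls were made as follows: active = inhibition of 40% or more at the single tested concentration; inactive = the rest.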

assay: growth inhibitors of isogenic TIM10 control yeast, primary screen, counter-screen for tim10-1 yeast inhibitor project, luminescence, uHTS (AID 463195);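 also: wild-type TIM10 isogenic control strain grown at permissive 25 °C; 0% = DMSO yeast wells and 100% = minimal medium wells without yeast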; settings: S. cerevisiae TIM10 strain growth, BacTiter-Glo luminescence, 24 h; at 10 µM; stronger effect = higher value

Structure (SMILES)	inhibition
COc1ccc(OP(C)(=O)Nc2ccccn2)cc1 (stereo unspecified)	inactive: 11.7%
